Laboratory results from patent publication US20230364079A1, “COMPOUND AS BRAIN-PERMEABLE BTK OR HER2 INHIBITOR, PREPARATION METHOD THEREFOR, AND USE THEREOF” (CHENGDU HYPERWAY PHARMACEUTICALS CO., LTD., priority 2020, published 2023).

Amino acid sequences for entries named in this document (tags omitted).
UniProt Q06187, whole entry: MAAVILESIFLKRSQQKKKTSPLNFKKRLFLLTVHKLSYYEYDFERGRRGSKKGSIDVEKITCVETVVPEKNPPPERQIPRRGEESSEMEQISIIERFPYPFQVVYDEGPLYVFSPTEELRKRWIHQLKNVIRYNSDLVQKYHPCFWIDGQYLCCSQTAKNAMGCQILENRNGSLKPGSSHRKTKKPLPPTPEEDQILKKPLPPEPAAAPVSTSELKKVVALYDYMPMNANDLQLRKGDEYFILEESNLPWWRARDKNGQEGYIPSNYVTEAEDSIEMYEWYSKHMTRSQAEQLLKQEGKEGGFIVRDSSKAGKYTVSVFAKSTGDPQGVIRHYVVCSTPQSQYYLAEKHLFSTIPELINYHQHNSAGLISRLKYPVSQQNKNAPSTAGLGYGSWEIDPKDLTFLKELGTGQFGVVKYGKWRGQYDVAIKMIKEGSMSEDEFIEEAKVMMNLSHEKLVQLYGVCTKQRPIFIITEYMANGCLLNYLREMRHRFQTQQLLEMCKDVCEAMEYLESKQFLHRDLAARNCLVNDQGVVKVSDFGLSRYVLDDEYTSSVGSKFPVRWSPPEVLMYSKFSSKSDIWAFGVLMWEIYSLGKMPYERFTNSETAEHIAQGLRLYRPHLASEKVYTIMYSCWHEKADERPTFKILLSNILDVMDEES

Biological target: BTK wild-type kinase (Homo sapiens (Human), UniProt Q06187)
Experiment: BTK kinase activity inhibition test in vitro (Caliper EZ Reader)
Assay type: biochemical
Conditions: read-out: BTK IC50

SMILES: Nc1nccn2c(C3CCC(CO)OC3)nc(-c3ccc(C(=O)Nc4ccccn4)cc3)c12 (single isomer, unassigned)
- IC50: 0.02 to 0.1 µM
